{"source": "patent US20250064801A1", "about": "“USE OF 5-AMINO-2,3-DIHYDRO-1,4-PHTHALAZINEDIONE IN THE TREATMENT OF CONGENITAL MUSCULAR DYSTROPHIES” (METROPHARM AG, priority 2022, published 2025)", "test": "Body weight of mdx mice measured weekly over the treatment period", "conditions": "three concentrations (1.0, 2.5, 5.0 mg/kg IP), weeks of age 5-10", "data": [{"compound": "Nc1cccc2c(=O)[nH][nH]c(=O)c12.[Na]", "note": "[5-amino-2,3-dihydro-1,4-phthalazinedione sodium salt]", "values": [{"measurement": "body weight over the treatment period versus untreated mdx mice and wild type mice", "result": "no differences"}]}]}
